These results are taken from patent publication US20070105870A1.

The chains behind the UniProt entries cited, without tags or fusion partners.
UniProt P23975, whole entry: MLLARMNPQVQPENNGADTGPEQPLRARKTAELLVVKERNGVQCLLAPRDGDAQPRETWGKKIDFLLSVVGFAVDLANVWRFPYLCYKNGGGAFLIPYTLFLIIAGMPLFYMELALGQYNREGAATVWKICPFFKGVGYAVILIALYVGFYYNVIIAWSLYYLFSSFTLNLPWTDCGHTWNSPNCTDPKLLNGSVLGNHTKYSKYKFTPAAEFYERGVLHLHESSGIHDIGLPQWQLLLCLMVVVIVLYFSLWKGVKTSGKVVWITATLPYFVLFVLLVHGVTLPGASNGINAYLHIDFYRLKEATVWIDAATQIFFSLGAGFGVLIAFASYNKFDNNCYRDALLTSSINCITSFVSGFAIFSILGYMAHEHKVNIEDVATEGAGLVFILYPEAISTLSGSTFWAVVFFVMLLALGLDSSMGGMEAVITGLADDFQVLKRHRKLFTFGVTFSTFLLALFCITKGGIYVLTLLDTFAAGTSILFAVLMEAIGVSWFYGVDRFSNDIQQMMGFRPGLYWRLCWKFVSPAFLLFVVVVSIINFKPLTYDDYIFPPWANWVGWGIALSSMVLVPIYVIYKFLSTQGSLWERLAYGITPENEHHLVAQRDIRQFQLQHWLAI

Some compounds may have been tested in ways that are not shown here.

One may read the Ki as a measure of affinity in units of concentration, obtained from inhibition or displacement.

The experiment has as its target human noradrenaline transporter (hNET) (Homo sapiens, UniProt P23975). Nature of the experiment: [3H]Nisoxetine binding to the human noradrenaline transporter (SPA, HEK-293 membranes). As to conditions: read-out: NRI Ki; inhibition of [3H]Nisoxetine (12 nM) binding to hNET membranes; Ki from IC50 by Cheng-Prusoff.

As to `FC(F)Oc1ccccc1CC(c1ccccc1)N1CCNCC1` (centres unmarked), the Ki amounted to 28 nM.

For `FC(F)Oc1ccccc1CC(c1ccccc1)N1CCNCC1` (single isomer, unassigned), the Ki was determined as 14 nM.
